The text below walks through data of article PMC11947346, “Synthesis and preclinical evaluation of gastrin releasing peptide receptor antagonist [^18F]MeTz-PEG2-RM26 for positron emission tomography” (EJNMMI Radiopharmacy and Chemistry, 2025).

The chains behind the UniProt entries cited, without tags or fusion partners. Where a name states a change or a piece, a line headed by the entry shows the natural chain unless it says otherwise.
UniProt P30550: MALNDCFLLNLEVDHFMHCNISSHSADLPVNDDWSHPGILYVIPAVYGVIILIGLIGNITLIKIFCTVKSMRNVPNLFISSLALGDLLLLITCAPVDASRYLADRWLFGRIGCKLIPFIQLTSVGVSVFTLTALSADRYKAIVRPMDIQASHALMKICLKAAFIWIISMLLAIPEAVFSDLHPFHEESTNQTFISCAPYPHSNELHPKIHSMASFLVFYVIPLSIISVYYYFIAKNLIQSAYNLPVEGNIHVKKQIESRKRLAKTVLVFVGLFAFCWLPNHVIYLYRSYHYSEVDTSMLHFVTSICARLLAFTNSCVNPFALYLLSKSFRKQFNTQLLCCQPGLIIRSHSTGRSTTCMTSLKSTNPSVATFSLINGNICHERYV

This assay deals with T1, GRPR (Homo sapiens, UniProt P30550).
T1 construct: investigated using GRPR-expressing PC-3 cells; endogenous in cells; host or cells: PC-3 cells
In words: In vitro competitive binding assay against [^125I]I-Tyr^4-BBN; IC50 determination. As to conditions: alive PC-3 cells, 5 h at 4°C, 24.6 fmol [^125I]I-Tyr^4-BBN, competitor 0.01–500 nM. As for the experimental part: The half maximal inhibitory concentration (IC50) was determined for F-MeTz-PEG2-RM2 (8b), Ga-loaded NOTA-PEG2-RM26 (Varasteh et al. [2013b], [2015]) conjugate was used as a comparator. An in vitro competitive binding assay was performed using [^125I]I-Tyr^4-BBN (Revvity, Sollentuna, Sweden) similar to the procedure previously described (Kanellopoulos et al. [2024]). Briefly, 10^5 cells were incubated the day before. The next day cells were incubated for 5 h at 4°C with 24.6 fmol of [^125I]I-Tyr^4-BBN in the presence of increasing concentrations of competitor (0.01–500 nM). After incubation, the cells were collected, and their activity was measured.

For the substance “Ga-NOTA-PEG2-RM26: Ga-loaded NOTA-PEG2-RM26 conjugate used as comparator in the competitive binding assay [reference compound]”, the IC50 – broadly, the concentration needed to halve the response being measured – turned out to be 0.87 nM.
